From US8575382B2, “Low molecular weight pharmacological activity modulators” (“Ivy Pharm” LLC, priority 2009, dated 2013)

Molecular target: T1, epidermal growth factor receptor (Homo sapiens, UniProt P00533)
T1 construct: endogenous in cells; host or cells: A431 human epidermoid carcinoma cells
Test: Tyrosine-kinase activity of the EGF receptor in A431 cells (immunoblotting, densitometry)
Format: cell-based
Protocol: A431 line human epidermoid carcinoma cells, obtained from the All-Russian Cell Culture Collection (Russian Academy of Sciences Institute of Cytology, St. Petersburg).
Cells are cultured in a CO2 incubator (New Brunswick Scientific) at +37° C. and with a CO2 content of 5%. Cells are grown in these conditions to a monolayer culture and are exposed to the action of the test compounds.
The DMEM medium (OOO PanEko, Moscow) with the addition of gentamicin K (80 mg/l), L-glutamine (300 mg/l) and fetal serum (PAA, Austria) to a final concentration of 10%, is used for culturing cells. Cells are transferred to a medium with a reduced serum content of 0.5% 24 hours before commencing an experiment.

effect on EGF receptor tyrosine-kinase activity initiated by EGF (1 μg/ml, late stages of incubation (1, 4 and 8 hours)): statistically non-reliable increase
reduction of the tyrosine-kinase activity of the EGF receptor (2.5 μg/ml, before EGF): 30%
effect on EGF receptor tyrosine-kinase activity initiated by EGF (0.1, 0.25, 0.5 and 0.75 μg/ml): did not affect
effect on stimulation of EGF receptor tyrosine-kinase activity by EGF (inhibitor 7.5 μg/ml acting 15, 20, 25 and 30 min before EGF 200 ng/ml, early and late times): completely eliminated stimulation
tyrosine-kinase activity retained by the receptors (inhibitor 7.5 μg/ml, 10 min before EGF 200 ng/ml, late times (1 hour, 4 and 8 hours)): 10-15%
concentrations that completely inhibit the tyrosine-kinase activity of the EGF receptor (introduced 10-25 min before epidermal growth factor): 3 to 7 µg/mL
Compound: COc1cc2ncnc(Nc3cccc(Cl)c3)c2cc1OC [AG1478, tyrphostin AG 1478]
EGF receptor tyrosine-kinase activity (5 μg/ml and 7.5 μg/ml, before EGF): no EGF receptor tyrosine-kinase activity was detected
